{
  "source": "patent US20120045528A1",
  "about": "“USE OF N20 GAS FOR TREATING CHRONIC PAIN” (priority 2009, published 2012)",
  "tested_on": "neuropathic rat (sciatic nerve constriction, CCI)",
  "experiment": "Nociceptive threshold by vocalization test to a mechanical stimulus (Randall-Selitto) in rats with mononeuropathy from sciatic nerve constriction (CCI)",
  "type": "in vivo, male Sprague-Dawley rats",
  "details": "nitrous oxide at 50%",
  "experimental": "A mononeuropathy is induced in male Sprague-Dawley rats (8 per group) by sciatic nerve constriction. More specifically, on D0, the rats are anesthetized with halothane and the sciatic nerve (injured hind paw side) is prepared using chromic catgut, 4 filament. Neuropathic pain lasting more than 40 days is thus induced.\nOn D7, the rats are placed in a hermetic chamber where they will inhale, for 75 minutes, the test gas mixture or medical air in the control rats (Sham). Repeated exposures to the mixtures take place on D7, D8, and D9.\nOther rats are subjected to comparative treatments with conventional painkilling products, namely ketamine (3×10 mg/kg, sc) and morphine (1 mg/kg, sc).\nThe nociceptive threshold is then measured via a vocalization test in response to a mechanical stimulus (Randall-Selitto).\nThe data obtained per measurement are expressed as mean (±standard deviation). The level of significance is set starting from P<0.05.",
  "note": "“Also recorded” adds a separate entry of the source.",
  "data": [
    {"smiles": "[N-]=[N+]=O", "note": "[nitrous oxide]", "values": [
      {"measurement": "pain hypersensitivity in the non-injured (contralateral) hind paw", "value": "abolishing of pain hypersensitivity; also recorded: abolishes the hypersensitivity"}
    ]}
  ]
}
